By UniProt entry, the sequences of proteins in these tests, tags left out. Where a name states a change or a piece, a line headed by the entry shows the natural chain unless it says otherwise.
UniProt P22303: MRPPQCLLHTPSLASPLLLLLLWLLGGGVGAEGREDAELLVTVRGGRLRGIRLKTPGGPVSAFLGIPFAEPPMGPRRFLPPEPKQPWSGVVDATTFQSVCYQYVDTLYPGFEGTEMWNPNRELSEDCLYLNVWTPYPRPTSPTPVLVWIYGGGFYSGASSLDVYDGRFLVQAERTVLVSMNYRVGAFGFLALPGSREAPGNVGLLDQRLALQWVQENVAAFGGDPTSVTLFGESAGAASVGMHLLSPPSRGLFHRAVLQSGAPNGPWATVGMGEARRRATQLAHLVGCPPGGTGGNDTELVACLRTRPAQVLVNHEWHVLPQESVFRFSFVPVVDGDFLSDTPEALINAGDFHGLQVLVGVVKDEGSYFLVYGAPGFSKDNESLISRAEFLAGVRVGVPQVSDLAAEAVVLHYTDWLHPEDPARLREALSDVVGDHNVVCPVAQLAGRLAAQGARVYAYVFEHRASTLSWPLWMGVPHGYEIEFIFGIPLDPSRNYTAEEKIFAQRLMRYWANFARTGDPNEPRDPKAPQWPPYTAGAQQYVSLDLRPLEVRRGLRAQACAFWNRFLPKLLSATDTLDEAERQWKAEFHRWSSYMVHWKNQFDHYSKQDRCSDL

According to ChEMBL document CHEMBL3259811, “Synthesis and in vitro evaluation of bis-quaternary 2-(hydroxyimino)-N-(pyridin-3-yl)acetamide derivatives as reactivators against sarin and VX inhibited human acetylcholinesterase (hAChE)” (2014):

Legend:
[1] = biological target: Acetylcholinesterase (Homo sapiens) (UniProt P22303); test: Reactivation of sarin-inhibited hemoglobin free human erythrocyte ghost acetylcholinesterase using acetylthiocholineiodide as substrate assessed as second order rate constant measured up to 1 hr by Ellman method
[2] = biological target: Acetylcholinesterase (Homo sapiens) (UniProt P22303); test: Reactivation of VX-inhibited hemoglobin free human erythrocyte ghost acetylcholinesterase using acetylthiocholineiodide as substrate assessed as rate constant for displacement of phosphoryl residue from phosphorylated enzyme-compound complex measured up to 1 hr by Ellman method
[3] = biological target: Acetylcholinesterase (Homo sapiens) (UniProt P22303); test: Reactivation of VX-inhibited hemoglobin free human erythrocyte ghost acetylcholinesterase using acetylthiocholineiodide as substrate assessed as second order rate constant measured up to 1 hr by Ellman method
[4] = biological target: Acetylcholinesterase (Homo sapiens) (UniProt P22303); test: Reactivation of sarin-inhibited hemoglobin free human erythrocyte ghost acetylcholinesterase using acetylthiocholineiodide as substrate assessed as rate constant for displacement of phosphoryl residue from phosphorylated enzyme-compound complex measured up to 1 hr by Ellman method
[5] = biological target: Acetylcholinesterase (Homo sapiens) (UniProt P22303); test: Reactivation of VX-inhibited hemoglobin free human erythrocyte ghost acetylcholinesterase using acetylthiocholineiodide as substrate measured up to 1 hr by Ellman method
[6] = biological target: Acetylcholinesterase (Homo sapiens) (UniProt P22303); test: Reactivation of VX-inhibited hemoglobin free human erythrocyte ghost acetylcholinesterase using acetylthiocholineiodide as substrate at 0.1 to 1 mM by Ellman method
[7] = biological target: Acetylcholinesterase (Homo sapiens) (UniProt P22303); test: Reactivation of sarin-inhibited hemoglobin free human erythrocyte ghost acetylcholinesterase using acetylthiocholineiodide as substrate measured up to 1 hr by Ellman method
[8] = biological target: Acetylcholinesterase (Homo sapiens) (UniProt P22303); test: Reactivation of sarin-inhibited hemoglobin free human erythrocyte ghost acetylcholinesterase using acetylthiocholineiodide as substrate at 0.1 to 1 mM by Ellman method

| SMILES | K [1] [M⁻¹ s⁻¹] | K [2] [min⁻¹] | K [3] [M⁻¹ s⁻¹] | K [4] [min⁻¹] | Activity [5] | Activity [6] | Activity [7] | Activity [8] |
| --- | --- | --- | --- | --- | --- | --- | --- | --- |
| O=C(/C=N\O)Nc1ccc[n+](CCCCCCC[n+]2cccc(NC(=O)/C=N\O)c2)c1 | 23.7 | 0.13 | 32.5 | 0.12 |  |  |  |  |
| O=C(/C=N\O)Nc1ccc[n+](CCCC[n+]2cccc(NC(=O)/C=N\O)c2)c1 | 24.3 | 0.23 | 43.8 | 0.08 |  |  |  |  |
| O=C(/C=N/O)Nc1ccc[n+](Cc2ccc(C[n+]3cccc(NC(=O)/C=N/O)c3)cc2)c1 | 181 | 0.09 | 84 | 0.09 |  |  |  |  |
| O=C(/C=N/O)Nc1ccc[n+](CC[n+]2cccc(NC(=O)/C=N/O)c2)c1 | 20.8 | 0.2 | 69.5 | 0.05 |  |  |  |  |
| O=C(/C=N\O)Nc1ccc[n+](CCC[n+]2cccc(NC(=O)/C=N\O)c2)c1 | 18.3 | 0.23 | 43.7 | 0.06 |  |  |  |  |
| O=C(/C=N/O)Nc1ccc[n+](Cc2ccccc2C[n+]2cccc(NC(=O)/C=N/O)c2)c1 | 37.3 | 0.05 | 57.8 | 0.05 |  |  |  |  |
| O=C(/C=N/O)Nc1ccc[n+](Cc2cccc(C[n+]3cccc(NC(=O)/C=N/O)c3)c2)c1 | 36 | 0.12 | 36.2 | 0.1 |  |  |  |  |
| O=C(/C=N\O)Nc1ccc[n+](CCCCCC[n+]2cccc(NC(=O)/C=N\O)c2)c1 | 36 | 0.07 | 66.2 | 0.05 |  |  |  |  |
| C[n+]1ccccc1C=NO | 37.2 | 0.11 | 59.8 | 0.06 |  |  |  |  |
| O=C(/C=N\O)Nc1ccc[n+](CCCCC[n+]2cccc(NC(=O)/C=N\O)c2)c1 | 25 | 0.07 | 62.7 | 0.05 | Dose-dependent effect | tde | Dose-dependent effect | tde |
